Source: PubChem
Rows were chosen to be rich in hits. Some 2.1% of all compounds tested hit in one or more screens of this group.
MITF act: activators of MITF-driven TRPM1 promoter reporter, primary screen, cell-based, SK-MEL-5, luciferase, single point. SK-MEL-5 TRPM1-promoter luciferase, 24 h; % of positive control, neutral wells = 0. activation, % at 12.5 µM. hit rate 0.75% among 300,000. AID 588334, 2011;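 active means mean activation of at least 80% with every replicate also reaching 80%; inconclusive means mean reaches 80% but some replicate falls short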;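 further: 0% = neutral control wells and 100% = parthenolide positive control wells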
PGC1a acetyl inh: inhibitors of PGC1a acetylation signal, primary screen, cell-based, U2OS, AlphaScreen, inhibitor mode. AlphaScreen anti-acetyl-lysine; with virally co-expressed GCN5 acetyltransferase. hit rate 0.17% among 350,000. inhibition, % at 15.6 µM;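 active means every replicate shows inhibition of at least 40%; inconclusive means mean inhibition at least 40% but some replicate below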;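 further: 0% = neutral control wells and 100% = positive control wells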
Wnt bcat act: Wnt/beta-catenin pathway activators, primary screen, cell-based, plate reader, single point; Wnt/beta-catenin reporter cell assay, activator; activation, % at 9.35 µM; hit rate 1.2% among 300,000; AID 743398, 2014; in the data active means activation above about 30%, passing the limit was not always enough; inconclusive means no clear call, values can overlap the other calls;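 further: 0% = neutral control wells and 100% = positive control wells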
miR122 inh: miR-122 Renilla sensor signal increase in Huh7, primary screen, miR-122 inhibitor project, cell-based, single point, plate reader | Huh7 miR-122 Renilla luciferase sensor, 48 h; neutral wells = 0, positive control = 100 | activation (reporter increase), % at 12.5 µM | hit rate 0.3% among 340,000;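 active means mean replicate activation score at least 90 and every replicate individually at or above 90; inconclusive means only one of the two criteria met; inactive means neither criterion met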;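 further: higher luciferase means less miR-122 activity so hits act as miR-122 inhibitors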
Yeast UUG start: yeast start codon fidelity modulation. S. cerevisiae UUG-firefly luciferase reporter, luminescence/redox ratio. activity score, % at 18.7 µM. 0.13% of 350,000 active;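 active means replicate mean at a twofold rise or more, about +100% in these data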;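 further: firefly luciferase made from a UUG start codon reports start codon fidelity; reporter light over untreated wells divided by growth signal over untreated wells; some hits fall short of that in this replicate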
MITF TRPM1 inh: inhibitors of MITF-dependent TRPM1 promoter reporter, primary screen, cell-based, SK-MEL-5, single point, luciferase; AID 488899, 2010; hit rate 0.83% among 330,000; SK-MEL-5 TRPM1 promoter luciferase, 24 h; inhibition, % at 12.5 µM;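 active means mean inhibition across replicates of 60% or more, whatever share of single replicates reaches that level; inconclusive means some that reach 60%, reason not given; inactive means mean inhibition across replicates below 60%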
* = called active by the depositor; ? = inconclusive; / = no result; [ ] = another dose, or the depositor's remark.

| no. | MITF TRPM1 inh | MITF act | Yeast UUG start | miR122 inh | PGC1a acetyl inh | Wnt bcat act | SMILES |
| --- | --- | --- | --- | --- | --- | --- | --- |
| 1 | -6.7 | 7.8 | 0.9 | 1.2 | 8.9 | -0.7 | O=c1oc(CCCO)cc2ccc(Br)cc12 |
| 2 | / | / | / | / | -3.6 | / | C[C@]1(C(=O)NC2CC2)c2ccccc2C(=O)N(Cc2cc(C(F)(F)F)cc(C(F)(F)F)c2)[C@H]1c1ccc(CO)cc1 |
| 3 | -9.2 | 9.5 | / | / | / | / | Cc1ccc(NC(=O)Nc2ccc3c(c2)nc(C)n3C)cc1 |
| 4 | -83.2 | 85.0* | / | / | -2.3 | 7.2 | CC(=O)c1ccc(NC(=O)Nc2ccc3c(c2)nc(C)n3C)cc1 |
| 5 | / | / | / | -3.9[16.7 µM] | -3.1 | / | COc1ccccc1CNC(=O)C[C@@H]1C[C@@H]2c3cc(N(C)C)ccc3O[C@@H]2[C@H](CO)O1 |
| 6 | / | / | / | -3.2[16.7 µM] | -5.9 | / | C[C@H]1CCCCO[C@H](CN(C)C(=O)C2CCCCC2)[C@@H](C)CN([C@@H](C)CO)C(=O)c2cc(N(C)C)ccc2O1 |
| 7 | -41.2 | 46.3 | / | / | 4.5 | 46.3* | Oc1c(C=Nc2ccc(Cl)cn2)sc2ccccc12 |
| 8 | -18.3 | 16.7 | / | / | 10.1 | -0.8 | Oc1c(C=Nc2ccccc2)sc2ccccc12 |
| 9 | -13.9 | 15.6 | -35.3 | 0.4 | -17.4 | 51.7* | Oc1c(/C=N/c2ccccn2)sc2ccccc12 |
| 10 | / | / | -0.6 | -9.5 | 6.4 | 37.2* | NC(=O)N/N=C(/CCCCCC/C(=N\NC(N)=O)c1ccccc1)c1ccccc1 |
| 11 | / | / | -6.5 | 9.9[16.7 µM] | 24.2 | / | C[C@@H]1CN([C@@H](C)CO)C(=O)c2cccc(NC(=O)Nc3ccc(F)cc3)c2O[C@H]1CN(C)Cc1ccccc1 |
| 12 | 79.1* | -75.3 | / | / | / | 4.0 | Cc1ccc(C(=O)c2no[n+]([O-])c2C(=O)c2ccc(C)cc2)cc1 |
| 13 | -26.7 | 26.1 | -5.0 | 1.5 | / | 14.0 | Cc1ccc(C(=O)c2ccc(C)cc2)cc1 |
| 14 | 1.9 | 1.7 | -11.4 | -5.9 | -2.5 | / | CCCCn1c(SCC(=O)Nc2nnc(C)s2)nc2c1c(=O)n(C)c(=O)n2C |
| 15 | 16.0 | -16.7 | -9.4 | 237.4* | / | / | CCCCn1c(SCC(=O)Nc2nnc(CC)s2)nc2c1c(=O)n(C)c(=O)n2C |
| 16 | / | / | 11.9 | -0.5[16.7 µM] | -4.0 | / | C[C@@H]1CN([C@@H](C)CO)C(=O)Cc2cc(NC(=O)Cn3cnnn3)ccc2O[C@H]1CN(C)Cc1ccc(-c2ccccc2)cc1 |
| 17 | 4.5 | -1.5 | -18.0 | -1.5 | -7.0 | / | CCOCCCNC(=O)C1CCCN(S(=O)(=O)CC)C1 (stereo not given) |
| 18 | -11.9 | 9.1 | / | -3.6 | 63.9* | / | CCCS(=O)(=O)N1CCCC(C(=O)NCCCOC(C)C)C1 (stereo not given) |
| 19 | / | / | / | / | -8.3 | / | Cc1ccc(-c2ccc(C3[C@@H]4CN(S(=O)(=O)c5cccc(C)c5)C[C@H]3N4)cc2)cc1 (stereo not given in full) |
| 20 | -5.6 | 6.6 | / | / | / | 0.1 | O=C(c1cc(-c2ccccc2Cl)nc2ccccc12)N1CCC1 |
| 21 | -5.0 | 7.9 | -23.3 | 2.5 | -6.4 | 46.8* | CN1CCCN(C(=O)c2cc(-c3cccc4ccccc34)nc3ccccc23)CC1 |
| 22 | 7.7 | -8.0 | / | -2.7 | -10.6 | 46.2* | O=C(NCc1nnc(SCC(=O)N2CCCc3ccccc32)o1)c1ccco1 |
| 23 | -2.1 | 7.3 | -4.8 | -18.1 | / | -4.8 | O=C(NCc1nnc(SCC(=O)N2CCc3ccccc32)o1)c1ccco1 |
| 24 | / | / | -9.0 | / | 4.1 | / | O=C(N[C@H]1CC[C@H](CCn2cc(-c3ccccn3)nn2)O[C@@H]1CO)c1ccccc1 |
| 25 | 13.7 | -9.2 | / | / | / | -6.5 | Cc1ccccc1NC(=O)c1ccccc1NC(=O)Cc1cccc2ccccc12 |
| 26 | 65.7* | -64.9 | -10.9 | -10.6 | 0.6 | -1.1 | Cc1ccccc1NC(=O)c1cccc2nc3ccccc3nc12 |
| 27 | 76.6* | -74.8 | -19.3 | -1.5 | / | -6.7 | Cc1ccc(S(=O)(=O)c2ncccc2[N+](=O)[O-])cc1 |
| 28 | -117.4 | 124.2* | 0.1 | -2.5 | -2.1 | / | CCOC(=O)c1c(C)[nH]c(N=Nc2ccc(C)cc2)c1C |
| 29 | -62.3 | 63.6 | -14.9 | 12.4 | 2.9 | 2.0 | CCOC(=O)c1c(C)[nH]c(C=Nc2ccc(OC)cc2)c1O |
| 30 | -62.6 | 65.2 | / | -9.2 | -7.7 | 45.9* | CCOC(=O)c1c(C)[nH]c(N=Nc2ccccc2Cl)c1C |
| 31 | -108.2 | 129.0* | / | / | -2.4 | 53.7* | CCOC(=O)c1c(C)[nH]c(N=Nc2ccc(OC)cc2)c1C |
| 32 | -75.8 | 70.9 | -2.8 | -4.7 | -16.8 | / | CCOC(=O)c1c(C)[nH]c(N=Nc2ccccc2)c1C |
| 33 | -92.0 | 97.7* | / | 1.1 | ? | 6.8 | CC(=O)N(c1ccccc1)c1nnc(-c2cnc(C)cn2)s1 |
| 34 | -15.5 | 19.8 | -3.2 | -2.4 | -4.5 | 13.6 | Cc1cnc(-c2nnc(N(C)C(=O)c3cccnc3)s2)cn1 |
| 35 | / | / | / | 0.6[16.7 µM] | -4.2 | / | CC(C)NC(=O)N(C)C[C@H]1OCCCC[C@@H](C)Oc2ccc(NC(=O)CCC(F)(F)F)cc2C(=O)N([C@@H](C)CO)C[C@@H]1C |
| 36 | / | / | -4.2 | -0.7[16.7 µM] | -6.1 | / | CO[C@H]1CN(C)C(=O)c2cc(NS(C)(=O)=O)ccc2OC[C@H](C)N(Cc2nccs2)C[C@@H]1C |
| 37 | -104.1 | 101.2* | -17.8 | -3.7 | 0.8 | / | O=C(CC(Nc1ccccc1)C(=O)O)c1ccccc1 (stereo not given) |
| 38 | 12.0 | -13.6 | -35.8 | 3.4 | -1.6 | -13.1 | O=C(CC(Nc1ccc(Cl)cc1Cl)C(=O)O)c1ccccc1 (stereo not given) |
| 39 | -72.3 | 73.4 | -31.8 | 5.7 | -0.7 | 52.9* | Cc1ccc(NC(CC(=O)c2ccccc2)C(=O)O)cc1Cl (stereo not given) |
| 40 | / | / | / | / | 12.0 | / | CO[C@@H]1CN(C)C(=O)c2cc(NC(=O)c3cc(C)on3)ccc2OC[C@H](C)NC[C@@H]1C |

Structures listed so far that bear a hit mark in miR122 inh:
| no. | MITF TRPM1 inh | MITF act | Yeast UUG start | miR122 inh | PGC1a acetyl inh | Wnt bcat act | SMILES |
| --- | --- | --- | --- | --- | --- | --- | --- |
| 15 | 16.0 | -16.7 | -9.4 | 237.4* | / | / | CCCCn1c(SCC(=O)Nc2nnc(CC)s2)nc2c1c(=O)n(C)c(=O)n2C |

Next part.
| no. | MITF TRPM1 inh | MITF act | Yeast UUG start | miR122 inh | PGC1a acetyl inh | Wnt bcat act | SMILES |
| --- | --- | --- | --- | --- | --- | --- | --- |
| 41 | / | / | -1.9 | / | -12.1 | / | COc1ccc(-c2cn(CC[C@H]3CC[C@@H](NC(=O)Cc4ccccn4)[C@H](CO)O3)nn2)cc1 |
| 42 | 2.1 | -7.2 | / | / | -3.8 | 2.4 | COC(CNC(=O)c1cccnc1)OC |
| 43 | 80.0* | / | -27.7 | -9.9 | 13.7 | 70.7* | COC(CNC(=O)c1ccc2c3c(onc13)-c1ccccc1C2=O)OC |
| 44 | -85.6 | 89.3* | -11.7 | 9.1 | 9.0 | ? | CCc1ccc(/C=N/NC(=O)c2c[nH]c3ccccc23)s1 |
| 45 | -61.1 | 61.8 | -15.3 | 4.1 | 0.3 | 30.5* | O=C(N/N=C/c1cccs1)c1c[nH]c2ccccc12 |
| 46 | 4.8 | -4.4 | / | / | / | 21.1 | Cc1c(/C=N\NC(=O)c2c[nH]c3ccccc23)cnn1C |
| 47 | / | / | 11.0 | -2.1[16.7 µM] | -19.5 | / | O=C(Cc1ccccc1)N1CC[C@H]2[C@H](CO)Nc3ccc(Br)cc3[C@H]21 |
| 48 | 65.9* | / | / | 8.2 | -1.3 | -25.9 | O=C1C=CC(=O)C(CNc2ccc(C(=O)OCc3ccccc3)cc2)=C1 |
| 49 | -63.5 | 60.4 | -21.2 | -7.5 | -3.0 | / | CN(C)c1ccc(C(=O)OCc2ccccc2)cc1 |
| 50 | / | / | / | 3.8[16.7 µM] | 2.2 | / | CS(=O)(=O)Nc1ccc2c(c1)[C@H]1C[C@@H](CC(=O)NCC3CC3)O[C@@H](CO)[C@H]1O2 |
| 51 | -12.5 | 17.2 | / | / | / | 3.1 | Fc1ccc(CSc2ccc(-c3ccc4c(c3)OCO4)nn2)cc1 |

Given field by field: part of the list above
[43] COC(CNC(=O)c1ccc2c3c(onc13)-c1ccccc1C2=O)OC
- MITF TRPM1 inh: 80.0*
- MITF act: /
- Yeast UUG start: -27.7
- miR122 inh: -9.9
- PGC1a acetyl inh: 13.7
- Wnt bcat act: 70.7*
[45] O=C(N/N=C/c1cccs1)c1c[nH]c2ccccc12
- MITF TRPM1 inh: -61.1
- MITF act: 61.8
- Yeast UUG start: -15.3
- miR122 inh: 4.1
- PGC1a acetyl inh: 0.3
- Wnt bcat act: 30.5*
[44] CCc1ccc(/C=N/NC(=O)c2c[nH]c3ccccc23)s1
- MITF TRPM1 inh: -85.6
- MITF act: 89.3*
- Yeast UUG start: -11.7
- miR122 inh: 9.1
- PGC1a acetyl inh: 9.0
- Wnt bcat act: ?
